## Apparent affinities of Ab-91 variants for a coronavirus HR2 peptide

From the AlphaSeq antibody data of Engelhart et al. 2022 (doi:10.1038/s41597-022-01779-4), copy in the FLAb collection.

All variants were tested on one target, the spike HR2 peptide PDVDLGDISGINAS (SARS-CoV-2).

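The parent was found by panning a naive human phage display library on the peptide. Variants in AAYL51 differ from the parent at up to three CDR positions; double and triple changes were sampled at random. The assay is AlphaSeq: two haploid yeast populations carry antibody and antigen on their surface. Pairs that bind mate more often; barcode pairs of the diploids are counted by sequencing. Each replicate has its own calibration line, from reference interactions of the BCL2 family. The assay was run in three technical replicates.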

Ab-91 is the parent antibody, in scFv form: VL, then a 15-residue (Gly4Ser)3 linker, then VH. The light chain is unchanged in all variants.
VL: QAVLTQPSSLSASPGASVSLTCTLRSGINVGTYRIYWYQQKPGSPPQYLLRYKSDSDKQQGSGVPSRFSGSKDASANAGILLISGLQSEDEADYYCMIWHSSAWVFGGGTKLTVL
VH: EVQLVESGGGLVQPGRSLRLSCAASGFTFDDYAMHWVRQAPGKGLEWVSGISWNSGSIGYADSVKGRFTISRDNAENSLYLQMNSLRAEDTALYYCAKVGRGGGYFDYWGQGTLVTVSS

Each variant is given by its three heavy chain CDRs, as the data file delimits them; those of the parent are GFTFDDYAMH, GISWNSGSIGYADSVK, VGRGGGYFDY. Values are log10 of the apparent Kd in nM; lower means stronger binding. Averages over replicates are reported, and they cover detected replicates only. "ND" marks a missing value. The strain was present, yet no cells mated with the target were sequenced in that replicate, which points to weak or no binding. Nonspecific signal, from three strains lacking the peptide, appeared in 21% of pairings of library AAYL51, centred on 4.54 (5% of these signals below 3.26); values are not corrected for it. The control count says in how many pairings with the empty strains this scFv gave a signal, with their mean in brackets. Parent in this assay: reference entry 1.86, copy in this library 0.88.

CDR-H1,CDR-H2,CDR-H3,"replicates, log10 nM","log10 Kd (nM), mean",signal with controls
GFTKDDYAMH,GISWNSGSIGYADSVK,VGHGMGYFDY,3.76 ND ND,3.76,0 of 9
GCTFDDYAMH,GISWNRGSICYADSVK,VGRGGGYFDY,4.48 ND 3.97,4.22,2 of 9 (4.21)
DFVFDAYAMH,GISWNSGSIGYADSVK,VGRGGGYFDY,ND ND ND,ND,0 of 9
GFTFDDYAMH,GISWNSGSIGYADSVK,VGRFGQYFDY,2.27 2.54 1.79,2.20,4 of 9 (4.90)
GSTFDRSAMH,GISWNSGSIGYADSVK,VGRGGGYFDY,ND ND ND,ND,0 of 9
GFTFDDYAEH,GISWNSYSIGYADSVK,VGRGGGLFDY,ND ND 5.45,5.45,2 of 9 (4.12)
GFTFDDYAMH,WISWNSFSIGYADSVK,VGRGYGYFDY,ND ND ND,ND,2 of 9 (4.19)
GDTFNDYAMH,GMSWNSGSIGYADSVK,VGRGGGYFDY,4.97 ND ND,4.97,6 of 9 (5.05)
GFTFCDYAMH,GISWNSASIGYADSVK,VGRGGGGFDY,3.17 4.26 ND,3.71,1 of 9 (4.46)
TFCFDDYAMH,GISWNSGSIGYADSVK,VGRGGGYADY,4.72 ND ND,4.72,0 of 9
GFTLDDYAMY,GISWNSGSIGYADSVK,EGRGGGYFDY,ND 4.95 ND,4.95,2 of 9 (3.93)
GITFDDYAMH,GISWNSGSIGYADSVK,VGRGMGYFDY,ND ND ND,ND,0 of 9
GFTFDDYAMH,GISWNWGSIGYAKSVK,VGRGGGYFDY,ND ND ND,ND,1 of 9 (3.95)
GFTFDTYHMH,GISWNSGSIGYADSVK,VVRGGGYFDY,ND ND ND,ND,0 of 9
GFTFDDYAMH,TISWNSGSWGYADSVL,VGRGGGYFDY,ND 5.41 ND,5.41,1 of 9 (5.45)
GFTFDDYAMH,GINWNEGSIGYADSVA,VGRGGGYFDY,4.46 5.64 4.85,4.98,7 of 9 (4.75)
GFTFDDYAYH,GISWNSGSIIYADSVK,VMRGGGYFDY,5.16 3.96 ND,4.56,2 of 9 (3.10)
GFTFDDYAMH,GINWNSGSIGYADSAK,VWRGGGYFDY,ND ND 5.38,5.38,2 of 9 (6.22)
GFNFDDYAMH,GISWNWGSIGYADSVK,VGRGGGYFMY,ND ND ND,ND,0 of 9
GFTFDAYAMH,GISWNSGSIGYADSVK,VGRGGGYSDY,ND ND ND,ND,2 of 9 (4.64)
TFTFDDYAMR,GISWNSGSIGYADSVK,VGAGGGYFDY,ND 5.64 ND,5.64,4 of 9 (4.57)
GATFDDYAMH,GISWNSGSIDYQDSVK,VGRGGGYFDY,4.88 ND ND,4.88,0 of 9
GFTFDDYAMH,EISWNSGSIGYADSVK,VGRDGGYFYY,ND ND ND,ND,1 of 9 (3.91)
GFTFDDYAMH,GIAWISGSIGYADSVK,WGRGGGYFDY,ND ND ND,ND,0 of 9
GFTFSDYAMH,GISWYSRSIGYADSVK,VGRGGGYFDY,ND ND 4.34,4.34,5 of 9 (4.98)
GMTFDDYAMH,GISWNSGSIGYADSVK,VGVGGGYFDD,2.90 3.53 4.33,3.58,3 of 9 (3.87)
GFTFDDYAMH,GIEWNSGSIGYADSVK,VGRGGGYLDY,5.78 ND ND,5.78,4 of 9 (4.81)
GFTFDDYAMH,GISWNSGSICYADSVK,VGRGGGYPDY,ND ND 3.91,3.91,0 of 9
GFTFDDYAMH,GLSWNSGPIVYADSVK,VGRGGGYFDY,5.02 3.90 4.65,4.53,4 of 9 (3.65)
GFTFDMYAMH,GISWNSGSIGYADSVK,VGRGGNYFWY,ND ND ND,ND,0 of 9
GFTFDDYAMH,GISWNSGAIYYADSVK,VGRGGGWFDY,ND ND ND,ND,0 of 9
GFTFDDGAMH,GISWNSGSMGYADSVK,VGRGGGYFDY,ND ND ND,ND,1 of 9 (3.20)
GFTFDDYAMH,GISWNSGTIGYADSYK,VDRGGGYFDY,4.06 6.20 ND,5.13,6 of 9 (5.10)
GFRFDDYAMH,GISWNSGSINYADSVK,VGRGGGYFDY,6.57 ND 4.42,5.49,1 of 9 (5.35)
GFTFDDYAMH,GISWNSGMIGYADSVK,VGRGCGYFLY,ND 4.97 ND,4.97,1 of 9 (4.62)
GFTFDDYAMG,GISWNSGSIGYADSVK,EGRGGGYFDD,4.41 5.30 5.73,5.15,5 of 9 (4.46)
GFTFDDYAMH,FISWNSGSIGYADSVK,VGRGGGYFDY,5.62 4.44 ND,5.03,1 of 9 (4.42)
GFTFDDYAYH,GISWNSGSIGYADSVK,VGRGYGYFVY,ND ND ND,ND,0 of 9
GFTFDDYDMH,GISWNSCSGGYADSVK,VGRGGGYFDY,ND ND ND,ND,3 of 9 (4.15)
GFTFDDGAMH,GISWNSASIGYADSVK,VLRGGGYFDY,ND ND ND,ND,0 of 9